# Test results reported in patent US20110010099A1, “Correlation Analysis of Biological Systems” (priority 2005, published 2011).
# Test system: liver mRNA transcripts (Enzyme_ABC, Enzyme_DEF)
# Assay: Liver mRNA transcript profiling (Affymetrix U34A) in rat hepatotoxicity study
# Conditions: Group 3 compared to Group 1
structure (smiles),measurement,value
Cn1c(=O)c2c(ncn2CC2OCCO2)n(C)c1=O [ABC123],abundance of mRNA transcript for Enzyme_DEF in liver,lower in abundance
